Molecular target: Protease (Human immunodeficiency virus 1, UniProt Q9YQ12)
Test: Inhibition of HIV1 protease

Ki: 0.54 nM
Compound: CC(C)(C)NC(=O)[C@@H]1CN(Cc2cccnc2)CCN1C[C@@H](O)C[C@@H](Cc1ccccc1)C(=O)N[C@H]1c2ccccc2C[C@H]1O

Reference: ChEMBL document CHEMBL3352256, “Structural basis for HTLV-1 protease inhibition by the HIV-1 protease inhibitor indinavir” (J Med Chem, 2014)
